Reference: patent publication US12139520B2 (priority 2020, dated 2024)

Protein sequences, listed by entry. Tags and fused reporters are not part of them. Residues count along the entry.
UniProt O60895, 43-175 partner: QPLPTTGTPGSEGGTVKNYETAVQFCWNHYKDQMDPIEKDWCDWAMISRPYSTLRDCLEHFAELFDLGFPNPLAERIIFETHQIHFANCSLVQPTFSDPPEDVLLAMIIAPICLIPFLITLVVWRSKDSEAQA
UniProt Q16602, 23-461: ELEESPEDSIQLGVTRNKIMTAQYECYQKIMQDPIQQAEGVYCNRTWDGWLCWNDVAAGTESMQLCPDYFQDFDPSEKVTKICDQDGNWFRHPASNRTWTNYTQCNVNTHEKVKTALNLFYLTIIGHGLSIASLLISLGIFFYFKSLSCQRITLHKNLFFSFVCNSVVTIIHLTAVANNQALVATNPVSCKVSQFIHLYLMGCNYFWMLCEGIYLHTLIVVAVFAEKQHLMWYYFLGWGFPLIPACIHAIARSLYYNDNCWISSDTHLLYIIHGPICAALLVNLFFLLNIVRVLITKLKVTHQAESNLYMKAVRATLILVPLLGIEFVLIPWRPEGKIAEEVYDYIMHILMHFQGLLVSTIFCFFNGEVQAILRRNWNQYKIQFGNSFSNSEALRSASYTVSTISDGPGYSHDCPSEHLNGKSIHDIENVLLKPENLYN

Legend:
hAM1 receptor = hAM1 receptor (Homo sapiens, UniProt O60895+Q16602); test: cAMP assay for in vitro receptor activation, hAM1-R; type: cell-based
Method: (§1) General Protocols for cAMP Assays for Measuring In Vitro Receptor Activation
Cells stably overexpressing the hAM1 receptor were obtained from Ogeda (now Astellas Pharma), sub-cloned and a monoclonal cell-line with an appropriate assay-window was expanded, aliquoted and frozen. An aliquot was thawed and plated in DPBS with 0.05% casein and 0.5 mM IBMX as 8000 cells/well in a 384-well format.

hAMY3 receptor = target: T1, hAMY3 receptor (Homo sapiens, UniProt O60896+P30988); test: cAMP assay for in vitro receptor activation, hAMY3-R; type: cell-based
T1 sequence (P30988 25-474): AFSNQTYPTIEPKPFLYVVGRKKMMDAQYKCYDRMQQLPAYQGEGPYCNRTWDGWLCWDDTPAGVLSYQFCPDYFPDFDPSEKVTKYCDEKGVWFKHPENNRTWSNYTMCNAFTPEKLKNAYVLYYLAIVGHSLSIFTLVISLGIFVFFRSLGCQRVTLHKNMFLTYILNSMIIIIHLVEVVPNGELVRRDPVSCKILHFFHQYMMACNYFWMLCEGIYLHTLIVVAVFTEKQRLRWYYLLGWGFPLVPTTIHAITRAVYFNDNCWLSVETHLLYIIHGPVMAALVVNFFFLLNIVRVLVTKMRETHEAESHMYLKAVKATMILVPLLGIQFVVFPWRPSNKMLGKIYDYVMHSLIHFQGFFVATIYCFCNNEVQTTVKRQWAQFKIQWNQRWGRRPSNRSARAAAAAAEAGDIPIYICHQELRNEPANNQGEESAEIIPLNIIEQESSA
T1 sequence (O60896 24-148 partner): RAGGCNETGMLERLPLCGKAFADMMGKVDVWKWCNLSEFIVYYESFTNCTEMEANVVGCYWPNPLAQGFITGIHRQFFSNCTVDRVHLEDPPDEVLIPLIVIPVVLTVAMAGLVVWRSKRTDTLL
Method: as §1
Cells stably overexpressing the hAMY3 receptor were obtained from Ogeda (now Astellas Pharma), sub-cloned and a monoclonal cell-line with an appropriate assay-window was expanded, aliquoted and frozen.
An aliquot was thawed and plated in DPBS with 0.05% casein and 0.5 mM IBMX as 2000 cells/well in a 384-well format. The cells were then immediately stimulated for 30 min at room temperature with graded doses of test compound using human amylin (Bachem, cat no. H-7905) as a positive control. cAMP accumulation was measured using a Cisbio assay for Gs coupled receptors (cat. no. 62AM4PEC), where the assay reagents were added as per the manufacturer's instructions and time-resolved fluorescence energy transfer recorded after one hour.

With `CC[C@H](C)[C@H](NC(=O)[C@H](C)NC(=O)CNC(=O)[C@H](Cc1ccccc1)NC(=O)[C@H](CC(N)=O)NC(=O)[C@H](CC(N)=O)NC(=O)[C@H](CO)NC(=O)[C@H](CO)NC(=O)[C@H](Cc1c[nH]cn1)NC(=O)[C@@H](NC(=O)[C@H](CC(C)C)NC(=O)[C@H](Cc1ccccc1)NC(=O)[C@H](CC(N)=O)NC(=O)[C@H](C)NC(=O)[C@H](CC(C)C)NC(=O)[C@H](CCCNC(=N)N)NC(=O)[C@H](CCC(N)=O)NC(=O)[C@@H](NC(=O)[C@H](C)NC(=O)[C@@H]1CSSC[C@H](NC(=O)[C@@H](N)CCCCN)C(=O)N[C@@H](CC(N)=O)C(=O)N[C@@H]([C@@H](C)O)C(=O)N[C@@H](C)C(=O)N[C@@H]([C@@H](C)O)C(=O)N1)[C@@H](C)O)C(C)C)C(=O)N[C@@H](CC(C)C)C(=O)N[C@@H](CO)C(=O)N[C@@H](CO)C(=O)N[C@H](C(=O)N[C@@H](CC(N)=O)C(=O)N[C@H](C(=O)NCC(=O)N[C@@H](CO)C(=O)N[C@@H](CC(N)=O)C(=O)N[C@H](C(=O)N[C@@H](Cc1ccc(O)cc1)C(N)=O)[C@@H](C)O)C(C)C)[C@@H](C)O` [SEQ ID NO: 2, reference compound] the EC50 (hAM1 receptor; cAMP accumulation, cells stably overexpressing hAM1 receptor, 30 min stimulation, read-out: hAM1R EC50) was greater than 5 µM.
Work on `CC[C@H](C)[C@H](NC(=O)[C@H](C)NC(=O)CNC(=O)[C@H](Cc1ccccc1)NC(=O)[C@H](CC(N)=O)NC(=O)[C@H](CC(N)=O)NC(=O)[C@H](CO)NC(=O)[C@H](CO)NC(=O)[C@H](Cc1c[nH]cn1)NC(=O)[C@@H](NC(=O)[C@H](CC(C)C)NC(=O)[C@H](Cc1ccccc1)NC(=O)[C@H](CC(N)=O)NC(=O)[C@H](C)NC(=O)[C@H](CC(C)C)NC(=O)[C@H](CCCNC(=N)N)NC(=O)[C@H](CCC(N)=O)NC(=O)[C@@H](NC(=O)[C@H](C)NC(=O)[C@@H]1CSSC[C@H](NC(=O)[C@@H](N)CCCCN)C(=O)N[C@@H](CC(N)=O)C(=O)N[C@@H]([C@@H](C)O)C(=O)N[C@@H](C)C(=O)N[C@@H]([C@@H](C)O)C(=O)N1)[C@@H](C)O)C(C)C)C(=O)N[C@@H](CC(C)C)C(=O)N[C@@H](CO)C(=O)N[C@@H](CO)C(=O)N[C@H](C(=O)N[C@@H](CC(N)=O)C(=O)N[C@H](C(=O)NCC(=O)N[C@@H](CO)C(=O)N[C@@H](CC(N)=O)C(=O)N[C@H](C(=O)N[C@@H](Cc1ccc(O)cc1)C(N)=O)[C@@H](C)O)C(C)C)[C@@H](C)O` [compound 2] yielded an EC50 (hAM1 receptor; cAMP assay, hAM1 receptor, read-out: hAM1R EC50) greater than 5 µM.
Work on `CC[C@H](C)[C@H](NC(=O)[C@H](CCC(N)=O)NC(=O)[C@H](CCC(=O)O)NC(=O)[C@H](C)NC(=O)[C@H](CC(C)C)NC(=O)[C@H](CCCNC(=N)N)NC(=O)[C@H](CCC(N)=O)NC(=O)[C@@H](NC(=O)[C@@H](NC(=O)[C@@H]1CSSC[C@H](NC(=O)[C@H](CCCCN)NC(=O)CC[C@H](NC(=O)CCCCCCCCCCCCCCCCCCC(=O)O)C(=O)O)C(=O)N[C@@H](CCC(N)=O)C(=O)N[C@@H]([C@@H](C)O)C(=O)N[C@@H](C)C(=O)N[C@@H]([C@@H](C)O)C(=O)N1)[C@@H](C)O)C(C)C)C(=O)N[C@@H](Cc1ccc(O)cc1)C(=O)N[C@@H](CCC(N)=O)C(=O)N[C@@H](Cc1ccccc1)C(=O)N[C@H](C(=O)N[C@@H](CC(=O)O)C(=O)N[C@@H](CCCCN)C(=O)N[C@@H](CC(=O)O)C(=O)N[C@@H](CCCCN)C(=O)N[C@@H](CC(=O)O)C(=O)N[C@@H](CC(N)=O)C(=O)N[C@H](C(=O)N[C@@H](C)C(=O)N1CCC[C@H]1C(=O)N1CCC[C@H]1C(=O)N[C@H](C(=O)N[C@@H](CC(N)=O)C(=O)N[C@H](C(=O)NCC(=O)N[C@@H](CO)C(=O)N[C@@H](CC(N)=O)C(=O)NCC(=O)N1C[C@H](O)C[C@H]1C(N)=O)C(C)C)[C@@H](C)O)C(C)C)[C@@H](C)O` [compound 72] yielded an EC50 (hAM1 receptor) greater than 5 µM and an EC50 (hAMY3 receptor) of 0.013 nM.

Like-named read-outs stand apart in the source and are kept apart here.
